Data from patent publication US12472175B2, “Methods of treating venetoclax-resistant acute myeloid leukemia” (OREGON HEALTH & SCIENCE UNIVERSITY, priority 2019, dated 2025).

Tested on: MOLM-13 and MV4;11 cells with TP53 and BAX KOs
Assay: Small molecule inhibitor panel screen, changes common to modified MOLM-13 and MV4;11 cells
Assay type: cell-based, Human
Conditions: TP53 inactivated MV4;11 and MOLM-13 cells
Procedure: Small-molecule inhibitors, purchased from LC Laboratories (Woburn, Mass., USA) and Selleck Chemicals (Houston, Tex., USA), were reconstituted in DMSO and stored at −80° C. Inc. Inhibitors were distributed into 384-well plates prepared with a single agent/well in a 7-point concentration series ranging from 10 μM to 0.04 μM for each drug. […] After three days of culture at 37° C. in 5% CO2, MTS reagent (CellTiter96 AQueous One; Promega Madison, Wis., USA) was added, optical density was measured at 490 nm, raw absorbance values were adjusted to a reference blank value, and then used to determine cell viability (normalized to untreated control wells). Prizm software(GraphPad) was used to perform non-linear regression analyses on normalized values for the determination of IC50.
FIG. 7A. MOLM-13 and MV4;11 cells, transduced with indicated sgRNAs/Cas9 viruses, were screened with a panel of inhibitors targeting various molecular pathways and assessed using the cell survival method described in FIG. 2A.
FIG. 7B. Analyses of FLT3 inhibitor sensitivities, in MOLM-13 and MV4;11 parental and Crispr-modified cells, as indicated. Drug sensitivity was measured as described in FIG. 2A, with IC50 measured in triplicate.

SMILES: CC(C)(C)c1cc(NC(=O)Nc2ccc(-c3cn4c(n3)sc3cc(OCCN5CCOCC5)ccc34)cc2)no1 [quizartinib]
- sensitivity to FLT3 inhibitors: loss of sensitivity
